The nature of data set [1]: Pharmacokinetics following PO administration of Compound KC-55 to rats (Example 48). The settings on record: oxycodone in rat plasma; oxycodone PO 10 mg/kg (28 μmol/kg).
The nature of data set [2]: Oral administration of Compound KC-55 co-dosed with Compound 109 to rats (Example 49). The settings on record: oxycodone values in Table 14 adjusted to expected values at a 36 μmol/kg dose.

Turning to `COc1ccc2c3c1O[C@H]1C(=O)CC[C@@]4(O)[C@@H](C2)N(C)CC[C@]314` [Oxycodone, oxycodone], the “Tmax ± sd” value came to 37.5 ± 25.8 min in data set [1] and 37.5 min in data set [2].

(Values after patent US20160002291A1, “Active Agent Prodrugs with Heterocyclic Linkers” (Signature Therapeutics, Inc., priority 2011, published 2016).)
